Experimental data: ChEMBL document CHEMBL3769306, “Discovery of Molecular Therapeutics for Glaucoma: Challenges, Successes, and Promising Directions” (J Med Chem, 2016)

The chains behind the UniProt entries cited, without tags or fusion partners.
UniProt P0DMS8, whole entry: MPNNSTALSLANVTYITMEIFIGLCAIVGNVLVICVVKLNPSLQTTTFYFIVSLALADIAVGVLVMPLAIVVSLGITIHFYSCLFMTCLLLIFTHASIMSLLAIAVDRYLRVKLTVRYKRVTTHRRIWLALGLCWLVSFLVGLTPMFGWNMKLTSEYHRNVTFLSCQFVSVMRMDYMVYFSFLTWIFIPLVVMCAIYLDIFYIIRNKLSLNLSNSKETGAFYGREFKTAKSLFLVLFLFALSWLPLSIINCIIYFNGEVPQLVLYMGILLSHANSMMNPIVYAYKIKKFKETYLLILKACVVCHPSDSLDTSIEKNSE

Biological target: Adenosine receptor A3 (Homo sapiens, UniProt P0DMS8)
Test: Binding affinity to adenosine A3 receptor (unknown origin)

- Ki: 16 nM
SMILES: C[C@H](Cc1ccccc1)Nc1ncnc2c1ncn2[C@@H]1O[C@H](CO)[C@@H](O)[C@H]1O [(R)-PIA]
